Laboratory results taken from US9169279B2, “Crystallization method and bioavailability” (THAR PHARMACEUTICALS, INC., priority 2009, dated 2015).

Test: Dog PK study: zoledronic acid in serum after IV or oral capsule dosing, enteric or non-enteric coated, with or without excess coformer (LC/MS/MS)
Format: in vivo
Settings: beagle, saline solution, read-out: Average serum concentration of 5 dogs

O=P(O)(O)C(O)(Cn1ccnc1)P(=O)(O)O [Zoledronic acid, (1-hydroxy-2-imidazol-1-yl-1-phosphono-ethyl)phosphonic acid]
concentration at 20 min (intravenous, 0.12 mg/kg, Leg 18, 15 min IV infusion 0.12 mg/kg, Time 0.3333 hour): 502 ng/mL
concentration at 0.5 hour (iv, 0.05 mg/kg, zoledronic acid in dog serum, Leg 1, IV 0.05 mg/kg, Time 0.5 hour): 111 ng/mL
